# From article PMC7669867, “Synthesis and initial screening of lactate dehydrogenase inhibitor activity of 1,3-benzodioxole derivatives” (Scientific Reports, 2020)
# Amino acid sequences for entries named in this document (tags omitted).
# UniProt P07195, whole entry: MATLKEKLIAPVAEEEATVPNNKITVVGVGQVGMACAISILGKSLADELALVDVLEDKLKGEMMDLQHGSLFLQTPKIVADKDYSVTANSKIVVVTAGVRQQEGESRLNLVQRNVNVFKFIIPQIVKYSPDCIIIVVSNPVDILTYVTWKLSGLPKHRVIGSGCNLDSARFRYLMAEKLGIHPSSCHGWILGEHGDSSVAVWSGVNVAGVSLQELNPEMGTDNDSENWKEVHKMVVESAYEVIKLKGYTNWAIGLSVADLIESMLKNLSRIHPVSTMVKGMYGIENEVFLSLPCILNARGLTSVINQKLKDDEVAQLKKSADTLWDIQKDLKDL
# Biological target: T1, purified recombinant human LDHB protein (Homo sapiens, UniProt P07195)
# T1 construct: purchased Abcam
# Experiment: In vitro LDHB activity assay (NAD+ converted to NADH)
# Type: biochemical
# Conditions: standard compounds
substance,measurement,value
GNE140 [reference compound],IC50,151 nM
